Consider one compound from ChEMBL document CHEMBL2062373, “Discovery of pyrroloaminopyrazoles as novel PAK inhibitors” (J Med Chem, 2012).

The chains behind the UniProt entries cited, without tags or fusion partners. Where a name states a change or a piece, a line headed by the entry shows the natural chain unless it says otherwise.
UniProt O96013: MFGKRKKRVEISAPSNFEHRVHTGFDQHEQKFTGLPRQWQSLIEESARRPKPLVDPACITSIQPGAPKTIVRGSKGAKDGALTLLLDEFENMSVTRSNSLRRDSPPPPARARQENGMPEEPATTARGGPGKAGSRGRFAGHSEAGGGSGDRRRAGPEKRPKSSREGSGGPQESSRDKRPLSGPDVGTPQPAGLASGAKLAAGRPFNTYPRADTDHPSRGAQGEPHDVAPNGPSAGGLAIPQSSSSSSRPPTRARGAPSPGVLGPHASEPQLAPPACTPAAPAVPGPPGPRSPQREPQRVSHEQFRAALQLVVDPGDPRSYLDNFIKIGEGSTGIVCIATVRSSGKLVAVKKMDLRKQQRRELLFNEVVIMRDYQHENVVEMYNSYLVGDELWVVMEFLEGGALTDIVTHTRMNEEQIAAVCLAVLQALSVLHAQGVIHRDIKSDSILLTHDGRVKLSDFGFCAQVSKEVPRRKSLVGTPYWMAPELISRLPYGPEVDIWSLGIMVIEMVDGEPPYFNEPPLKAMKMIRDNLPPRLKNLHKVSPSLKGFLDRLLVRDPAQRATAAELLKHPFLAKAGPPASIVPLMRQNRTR

Molecules are shown by their SMILES.

In assay [1] the target is T1, Serine/threonine-protein kinase PAK 4 (Homo sapiens, UniProt O96013). Briefly: Inhibition of PAK4-mediated GEF-H1 phosphorylation at Ser810 by cell based assay.
The target in assay [2] is T1, Serine/threonine-protein kinase PAK 4. Briefly: Inhibition of PAK4.

In general, EC50 refers to the concentration needed to bring the measured effect to its halfway point. Lower therefore signals a more potent agent. What is called Ki is a measure of affinity in units of concentration, obtained from inhibition or displacement. In the case of `CN(C)C[C@@H](OC(=O)N1Cc2c(NC(=O)c3ccccc3)n[nH]c2C1(C)C)c1ccccc1`, the EC50 in assay [1] came out at 11 nM. Further, the Ki in assay [2] was determined as 12 nM.
